Values of other authors, collected in PMC5394958 (Haematologica, 2016).

What was measured:
T315I BCR-ABL1 mutation = details: cited from earlier work
[1] = system: VEGF receptors 1, 2, and 3; details: patients; cited from earlier work

Row | Compound | effectiveness against the T315I BCR-ABL1 mutation (T315I BCR-ABL1 mutation) | plasma levels of VEGF and PlGF [1]
1 | Cc1nc(Nc2ncc(C(=O)Nc3c(C)cccc3Cl)s2)cc(N2CCN(CCO)CC2)n1 [dasatinib] | not effective | 
2 | CCN(CC)CCNC(=O)c1c(C)[nH]c(/C=C2\C(=O)Nc3ccc(F)cc32)c1C [sunitinib] |  | increases
